Molecular target: GPIb on human platelets (human) (UniProt P07359)
Experiment: cell-based or functional assay

Substance “thrombin (from UniProt P00734 328-622) (enzyme)” has a Platelet interaction (cells/mm^2/sec), no suspension treatment (cells/mm^2/sec) of 226 and a Platelet interaction (cells/mm^2/sec), with 6D1 in suspension (cells/mm^2/sec) of 58.5.

— patent US20100184672A1
